Residue numbers refer to the chain shown, from its start. Names and notes keep the numbering of the source. Values joined by “and” are separate entries in the source; they are usually repeats but may differ in a detail not shown here. Equal entries are not always repeated.
T1: hGal3 ND 8mer SPOT peptide no. 29 (Homo sapiens, UniProt P17931, N-terminal acetyl; C-terminus bound to a Gly-PEG500-derivatised cellulose membrane)
T1 construct: 8mer of the N-terminal domain of human galectin-3; contains the motif Ala-Pro-Pro-Gly-Ala-Tyr; also called spot no; 29; source: synthetic peptide, SPOT synthesis on cellulose membrane
T1 chain: QAPPGAYP

Sequences of proteins named here, by UniProt entry; tags and fusion partners are left off. A change or cut given only in a name is not applied to a line headed by its entry.
UniProt P17931, whole entry: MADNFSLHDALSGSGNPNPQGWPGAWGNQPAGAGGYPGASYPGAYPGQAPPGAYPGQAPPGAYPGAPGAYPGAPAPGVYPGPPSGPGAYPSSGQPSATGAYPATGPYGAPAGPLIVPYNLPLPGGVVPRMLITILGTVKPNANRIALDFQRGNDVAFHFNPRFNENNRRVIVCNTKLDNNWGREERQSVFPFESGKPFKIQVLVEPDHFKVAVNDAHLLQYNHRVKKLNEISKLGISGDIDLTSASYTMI

T2: hGal3 ND 8mer SPOT peptide no. 25 (Homo sapiens, UniProt P17931, N-terminal acetyl; C-terminus bound to a Gly-PEG500-derivatised cellulose membrane)
T2 construct: 8mer of the N-terminal domain of human galectin-3; contains the motif Ala-Pro-Pro-Gly-Ala-Tyr; also called spot no; 25; source: synthetic peptide, SPOT synthesis on cellulose membrane
T2 chain: APPGAYPG

T3: hGal3 ND 8mer SPOT peptide no. 24 (Homo sapiens, UniProt P17931, N-terminal acetyl; C-terminus bound to a Gly-PEG500-derivatised cellulose membrane)
T3 construct: 8mer of the N-terminal domain of human galectin-3; contains the motif Ala-Pro-Pro-Gly-Ala-Tyr; also called spot no; 24; source: synthetic peptide, SPOT synthesis on cellulose membrane
T3 chain: GQAPPGAY

B1: chimeric αhGal3-Fab (rat V-regions of mAb M3/38, human constant domains) (Fab, V domains shown)
VH: QIQLVQSGPELKKPGESVKISCKASGYTFTDYAIHWVKQAPGKGLKWMGWINTYTGKPIYADDFKGRFVFSLEASASTANLQISNLKNEDTATYLCARGTMMASLDYWGQGVMVTVSS
VL: DVVMTQTPVSLSLAIGQPASISCKSSQSLVHSDGKTYLSWILQRPGQSPKGLIYLVSKLDSGVPDRFSGSGSETEFTLKISRVEAEDLGVYYCWQATHFPLTFGSGTKLEIK
B2: single point mutant "4NRY"(E46K) of the humanized αhGal3-Fab (Fab, V domains shown)
VH: QIQLVQSGAEVKKPGESLKISCKVSGYTFTDYAIHWVRQMPGKGLKWMGWINTYTGKPIYADDFKGQVIISLDKSINTAYLQWSSLKASDTAIYYCARGTMMASLDYWGQGTTVTVSS
VL: DVVLTQSPSSLSASVGDRVTITCKSSQSLVHSDGKTYLSWIQQKPGKAPKGLIYLVSKLDSGVPSRFSGSGSETDFTLTISSLQPEDSATYYCWQATHFPLTFGPGTKVDIR
B3: single point mutant "4NRY"(L4M) of the humanized αhGal3-Fab (Fab, V domains shown)
VH: B2 VH with K46E
VL: B2 VL with L4M
B4: humanized αhGal3-Fab version "4NRY" (CDRs of M3/38 grafted on the framework of human mAb m66) (Fab, V domains shown)
VH: B2 VH with K46E
VL: B2 VL
B5: GaletuzuFab (final humanized αhGal3-Fab: "4NRY" with Lys(H46) and Met(L4)) (Fab, V domains shown)
VH: B2 VH
VL: B2 VL with L4M
B6: GaletuzuFab-PAS200-Dfo (Fab, V domains shown)
VH: B2 VH
VL: B2 VL with L4M
B7: GaletuzuFab-PAS200-Cy7 (Fab, V domains shown)
VH: B2 VH
VL: B2 VL with L4M
B8: chimeric αhGal3-Fab-PAS200-Cy5.5 (Fab, V domains shown)
VH: B1 VH
VL: B1 VL
B9: GaletuzuFab-PAS200-Dfo-^89Zr (Fab, V domains shown)
VH: B2 VH
VL: B2 VL with L4M

What was measured:
[1] = target: T4, full length human galectin-3 (hGal3), Cys173 mutated to Thr (Homo sapiens, UniProt P17931, Cys173 mutated to Thr); assay: ELISA; recombinant hGal3 immobilized on a microtiter plate; dilution series of Fab; detection with goat anti-human-kappa-light-chain-IgG alkaline phosphatase conjugate; settings: both partners purified
T4 construct: human galectin-3, UniProtKB P17931, full length, unpaired Cys173 mutated to Thr; also called recombinant hGal3; full length recombinant hGal3

[2] = target: T4, full length human galectin-3 (hGal3), …; assay: SPR; Fab immobilized, hGal3 as analyte at increasing concentrations (single cycle kinetics); 1:1 binding model; settings: both partners purified
[3] = target: T1, hGal3 ND 8mer SPOT peptide no. 29; assay: peptide or protein array; SPOT array of N-acetylated 8mer peptides of the hGal3 ND on cellulose membrane; chimeric αhGal3-Fab-PAS200-Cy5.5, 2 µg ml^−1 in PBS/T0.01, 1 h, room temperature; fluorescence read-out; settings: both partners purified
[4] = target: T2, hGal3 ND 8mer SPOT peptide no. 25; assay: as above; settings: both partners purified
[5] = target: T3, hGal3 ND 8mer SPOT peptide no. 24; assay: as above; settings: both partners purified
[6] = target: T5, hGal3 on FRO82-1 thyroid cancer cells (Homo sapiens (FRO82-1 cells), UniProt P17931); assay: radioligand binding; saturation binding assay of the ^89Zr radiotracer on FRO82-1 cells; triplicate; settings: one partner purified
T5 construct: human galectin-3 as expressed by the anaplastic thyroid cancer cell line FRO82-1; also called hGal3 antigen at the cell surface; FRO82-1 TC cells (RRID: CVCL_6287); source: endogenous, on FRO82-1 anaplastic thyroid cancer cells

Binder | Kd [1] | other results
B1 | 1.3 nM and 1.2 nM | Kd [2]: 0.29 nM
B2 | 1.3 nM | 
B3 | 1.5 nM | 
B4 | 2.3 nM and 3.6 nM | 
B5 | 1.3 nM | Kd [2]: 0.34 nM
B6 | 1.9 nM | 
B7 | 1.6 nM | 
B8 |  | binding result [3]: binds; binding result [4]: binds; binding result [5]: binds
B9 |  | Kd [6]: 15 nM
